This experiment deals with Na+,HCO3- co-transporter NBCn1 (SLC4A7), native in MCF-7 cells (human (endogenous in MCF-7)) (UniProt Q9Y6M7). As to the kind of experiment: proximity ligation; in situ PLA (Duolink II) with primary antibodies against NBCn1 and RACK1 in fixed non-confluent (60-70% confluency) MDCK-II or MCF-7 cells; control with only NBCn1 antibody.

For “Receptor for Activated C Kinase-1 (RACK1), endogenous in MCF-7 cells (from UniProt P63244 1-317) (natural protein)”, the PLA signal, fold above the control with only NBCn1 antibody worked out at 8 fold.

The values are drawn from publication PMC5943355.
